{"source": "ChEMBL document CHEMBL5131571", "about": "“Design, Synthesis, and Evaluation of Lung-Retentive Prodrugs for Extending the Lung Tissue Retention of Inhaled Drugs” (J Med Chem, 2022)", "experiment": "Stability of compound in PBS at pH 6.5 assessed as half life by LC-MS analysis", "format": "physicochemical", "conditions": "buffer", "summary_of_the_method": "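1000 ng/mL final (from 200 μg/mL D6-DMSO stock) in prewarmed matrix at 37 °C with continuous shaking, triplicate. Matrices: pH 6.5 or 7.4 phosphate buffer, 1 in 4 water-diluted Wistar Han lung homogenate (pH 6.8), or fresh rat blood. Timed aliquots quenched in MeCN with labetalol/reserpine internal standards. Half-life by MS, mean ± SD.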"}
{"smiles": "CC(OC(=O)CN(C)C)OC(=O)N1CCC(OC(=O)C(O)(c2ccccc2)c2ccccc2)CC1", "note": "(stereo unspecified)", "values": [{"measurement": "t1/2", "value": 3.53, "unit": "h"}]}
